The values below come from article PMC2009897, “Comparison of mutagenesis and malignant transformation by dihydrodiols from benz[a]anthracene and 7,12-dimethylbenz[a]anthracene” (British Journal of Cancer, 1979).

For data set [1], the system named is M2 mouse fibroblasts. To be noted: ref Marquardt et al., cited from earlier work.
The test system of data set [2] is V79 Chinese hamster cells. To be noted: ref Marquardt et al., 1977b; cited from earlier work.
The test system of data set [3] is V79 Chinese hamster cells. The data set is described as follows: Cytotoxicity (plating efficiency) in V79 Chinese hamster cells. The class given is cell-based. To be noted: 3 h.
Data set [4] relates to M2 mouse fibroblasts. The data set is described as follows: Malignant transformation in M2 mouse fibroblasts. To be noted: 24 h.
In data set [5] the test system is M2 mouse fibroblasts. The experiment in a line: Plating efficiency of M2 mouse fibroblasts. To be noted: 24 h. The format is cell-based.
[6] abbreviates: 0.2 µg/ml, Table II (control for BA experiments).
Setting [7] is: 0.4 µg/ml, Table I (control for DMBA experiments).
[8] abbreviates: 0.4 µg/ml, Table II (control for BA experiments).

As for “7,8-dihydrodiol-9,10-epoxide of benzo[a]pyrene”, in the data set on M2 mouse fibroblasts [1] (1977a), the “Induction of transformations in M2 cells, anti versus syn isomer” value is given as “more active”.

Regarding “8,9-dihydrodiol of 7-methylbenz[a]anthracene”, the “Activity in M2 cells (malignant transformation), earlier observations” value in the data set with M2 mouse fibroblasts [1] (1976) is “active”. Also, in data set [2], the “Activity in V79 cells” value is reported as “active”.

Turning to N-Methyl-N'-nitro-N-nitrosoguanidine, the “Plating efficiency (%) in V79 cells” value in data set [3] (setting [6]) is 74%; in data set [3] (setting [7]) it was 31%; in data set [3] (setting [8]), 56%. The “Transformed foci/103 survivors” value with M2 mouse fibroblasts [4] (setting [6]) was found to be 3.0 foci/103 survivors; in the data set with M2 mouse fibroblasts [4] (setting [7]), 5.3 foci/103 survivors. For the same substance, the Transformed foci/dishes treated with M2 mouse fibroblasts [4] (setting [6]) is on record as 23/24; in the data set on M2 mouse fibroblasts [4] (setting [7]) it was 10/9; in the data set on M2 mouse fibroblasts [4] (setting [8]), 25/19. Moreover, the “Plating efficiency (%) in M2 cells” value in the data set with M2 mouse fibroblasts [5] (setting [6]) is given as 32%; in the data set with M2 mouse fibroblasts [5] (setting [7]), 21%; with M2 mouse fibroblasts [5] (setting [8]) it was 26%.
